# Literature values as cited in article PMC6153967 (CNS Drugs, 2018).
# Where two headings read alike, the source gives them in different places.
# Conditions: cited from earlier work
substance,measurement,setting,value
aducanumab: anti-amyloid antibody,Incidence of ARIA-E,"dose titration regimen, APOE4 carriers",~ 35%
same,Incidence of ARIA-E,two highest doses,~ 40%
